Experiments:
[1] = biological target: TAG-72 on cancer cell lines; test: flow cytometry, percent of cells bound; legend: MCF-7 cells, 20 µg antibody (text paragraph 140: 200 µg, in the context of OVACAR-3)
TAG-72 purified target [2] = test: ELISA, coating Mucin(HCl), replicate 2
[3] = biological target: TAG-72 on cancer cell lines; test: flow cytometry, percent of cells bound; legend: MCF-7 cells, 40 µg antibody (text paragraph 140: 400 µg, in the context of OVACAR-3)
TAG-72 purified target [4] = test: ELISA, coating Mucin(H2O), replicate 2
TAG-72 purified target [5] = test: ELISA, coating Mucin(H2O), replicate 1
TAG-72 purified target [6] = test: ELISA, coating Mucin(HCl), replicate 1

## CC49_BITE_2: CC49_SCFV-2-LINKER-OKT3_SCFV-H6 (bispecific antibody)
[1]
  % binding: 9.89%
TAG-72 purified target [2]
  OD490: 0.366 OD490
[3]
  % binding: 18.5%
TAG-72 purified target [4]
  OD490: 0.31 OD490
TAG-72 purified target [5]
  OD490: 0.308 OD490
TAG-72 purified target [6]
  OD490: 0.364 OD490

From patent US20170058043A1
